# Experimental data reported in ChEMBL document CHEMBL1152507, “An extended study of dimeric phenyl tropanes” (Bioorg Med Chem, 2009).
# Amino acid sequences for entries named in this document (tags omitted).
# UniProt P31645, whole entry: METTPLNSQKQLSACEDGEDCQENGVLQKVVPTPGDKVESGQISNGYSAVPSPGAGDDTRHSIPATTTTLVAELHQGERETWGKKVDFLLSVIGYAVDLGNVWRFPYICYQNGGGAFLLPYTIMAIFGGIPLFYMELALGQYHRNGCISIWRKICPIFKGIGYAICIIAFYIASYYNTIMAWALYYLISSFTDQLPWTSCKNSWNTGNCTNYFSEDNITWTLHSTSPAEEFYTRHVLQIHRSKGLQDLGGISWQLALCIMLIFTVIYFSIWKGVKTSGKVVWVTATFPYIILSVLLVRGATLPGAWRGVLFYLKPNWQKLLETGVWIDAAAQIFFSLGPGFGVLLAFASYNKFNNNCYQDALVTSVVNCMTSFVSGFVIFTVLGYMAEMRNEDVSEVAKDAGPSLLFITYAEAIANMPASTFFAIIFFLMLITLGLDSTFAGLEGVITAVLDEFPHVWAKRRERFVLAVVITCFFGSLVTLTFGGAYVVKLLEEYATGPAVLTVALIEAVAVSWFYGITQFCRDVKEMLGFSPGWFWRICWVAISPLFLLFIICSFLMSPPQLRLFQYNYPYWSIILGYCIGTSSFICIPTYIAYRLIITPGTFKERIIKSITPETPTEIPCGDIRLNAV
# UniProt P23975, whole entry: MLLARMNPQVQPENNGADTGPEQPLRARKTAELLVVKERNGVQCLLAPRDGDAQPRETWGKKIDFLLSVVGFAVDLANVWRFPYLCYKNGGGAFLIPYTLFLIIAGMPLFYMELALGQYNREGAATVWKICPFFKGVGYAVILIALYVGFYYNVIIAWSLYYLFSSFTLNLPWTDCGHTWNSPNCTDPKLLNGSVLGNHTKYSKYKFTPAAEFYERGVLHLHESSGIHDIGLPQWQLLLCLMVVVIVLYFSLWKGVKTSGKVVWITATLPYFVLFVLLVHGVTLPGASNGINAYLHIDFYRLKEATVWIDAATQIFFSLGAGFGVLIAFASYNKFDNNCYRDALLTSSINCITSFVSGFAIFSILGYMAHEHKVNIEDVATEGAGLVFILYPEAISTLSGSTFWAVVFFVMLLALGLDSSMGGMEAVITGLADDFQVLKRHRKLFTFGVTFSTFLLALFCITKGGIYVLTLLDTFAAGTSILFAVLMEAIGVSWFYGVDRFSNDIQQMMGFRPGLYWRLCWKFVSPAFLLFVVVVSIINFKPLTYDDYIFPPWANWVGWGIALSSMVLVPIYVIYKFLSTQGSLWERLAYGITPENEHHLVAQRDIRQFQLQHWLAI
# Legend:
# [1] = target: Sodium-dependent serotonin transporter (Homo sapiens, UniProt P31645); assay: Displacement of [125I]methyl 3-(4-iodophenyl)-8-methyl-8-aza-bicyclo[3.2.1]octane-2-carboxylate from human recombinant SERT expressed in african green monkey COS1 cells by liquid scintillation counting; format: cell-based, COS-1
# Procedure, shortened: (§1)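 Membranes from COS-1 cells stably expressing cloned human transporter; cells scraped, homogenized in ice-cold 150 mM NaCl/50 mM Tris/20 mM EDTA, pelleted at 12,000g, resuspended in PBSCM, stored at -80 °C. 5 µg protein/well incubated with test drug and 0.1–0.25 nM 125I-radioligand for 1 h at 20 °C. Filtered on PEI-presoaked GF/B filters, washed thrice with ice-cold water.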
# Homo sapiens [2] = species on record: Homo sapiens; assay: Selectivity ratio of Ki for human SERT to Ki for human DAT
# Homo sapiens [3] = species on record: Homo sapiens; assay: Selectivity ratio of Ki for human NET to Ki for human DAT
# [4] = target: Sodium-dependent noradrenaline transporter (Homo sapiens, UniProt P23975); assay: Displacement of [125I]methyl 3-(4-iodophenyl)-8-methyl-8-aza-bicyclo[3.2.1]octane-2-carboxylate from human recombinant NET expressed in african green monkey COS1 cells by liquid scintillation counting; format: cell-based, COS-1; procedure, shortened: as §1
smiles,measurement,setting,value
COC(=O)[C@@H]1C2CCC(C[C@@H]1c1ccc(Cl)cc1)N2C (some centres undefined),Ki,[1],21 nM
same,Ratio Ki,Homo sapiens [2],7.8
same,Ratio Ki,Homo sapiens [3],14
same,Ki,[4],39 nM
